Measured values as given in publication PMC3630508 (Molecular immunology, 2012).

Chains of the proteins cited; added tags and fusions are not shown. Residues count along the entry.
UniProt P00736, 18-705, chain 1 of 2: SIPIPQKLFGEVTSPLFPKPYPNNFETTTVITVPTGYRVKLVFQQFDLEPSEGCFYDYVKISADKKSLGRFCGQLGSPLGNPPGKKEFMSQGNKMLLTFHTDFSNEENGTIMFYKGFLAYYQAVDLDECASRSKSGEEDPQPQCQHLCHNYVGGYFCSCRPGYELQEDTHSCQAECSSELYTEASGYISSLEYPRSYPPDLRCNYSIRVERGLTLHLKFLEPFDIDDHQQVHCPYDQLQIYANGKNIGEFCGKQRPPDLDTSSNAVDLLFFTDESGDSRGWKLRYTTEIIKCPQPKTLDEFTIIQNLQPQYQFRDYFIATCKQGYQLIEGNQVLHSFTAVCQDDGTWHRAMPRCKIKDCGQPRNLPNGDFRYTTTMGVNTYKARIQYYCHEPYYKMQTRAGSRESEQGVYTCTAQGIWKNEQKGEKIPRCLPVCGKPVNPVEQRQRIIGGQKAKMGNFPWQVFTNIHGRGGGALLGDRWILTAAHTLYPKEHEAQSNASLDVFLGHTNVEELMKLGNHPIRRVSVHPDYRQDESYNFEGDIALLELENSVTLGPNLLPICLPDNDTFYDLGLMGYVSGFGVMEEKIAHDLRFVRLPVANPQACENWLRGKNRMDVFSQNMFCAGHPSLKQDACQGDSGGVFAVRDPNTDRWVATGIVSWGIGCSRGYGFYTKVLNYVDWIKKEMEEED
UniProt P02745, 23-245: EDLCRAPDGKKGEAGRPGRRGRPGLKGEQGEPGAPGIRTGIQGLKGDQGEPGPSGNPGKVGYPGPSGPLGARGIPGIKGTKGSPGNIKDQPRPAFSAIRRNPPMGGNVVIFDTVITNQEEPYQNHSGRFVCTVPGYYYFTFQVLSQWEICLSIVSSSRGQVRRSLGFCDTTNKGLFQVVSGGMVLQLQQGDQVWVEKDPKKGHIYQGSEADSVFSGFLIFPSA
C1q, UniProt P02746, 28-253: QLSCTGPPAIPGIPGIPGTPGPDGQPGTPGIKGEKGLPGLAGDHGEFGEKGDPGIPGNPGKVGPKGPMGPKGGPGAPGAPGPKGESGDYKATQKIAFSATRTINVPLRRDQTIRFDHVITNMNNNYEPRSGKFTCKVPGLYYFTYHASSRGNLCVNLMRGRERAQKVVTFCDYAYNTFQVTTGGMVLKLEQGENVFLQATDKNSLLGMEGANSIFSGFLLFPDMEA
C1q, UniProt P02747, 29-245: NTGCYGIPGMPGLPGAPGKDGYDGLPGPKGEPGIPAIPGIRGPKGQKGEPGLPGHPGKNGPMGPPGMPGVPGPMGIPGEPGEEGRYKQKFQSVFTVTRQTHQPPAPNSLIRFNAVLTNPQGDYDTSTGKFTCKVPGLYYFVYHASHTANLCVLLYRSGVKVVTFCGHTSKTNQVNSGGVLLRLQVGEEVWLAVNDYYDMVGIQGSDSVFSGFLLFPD

Key:
[1] = biological target: C1s-C1r-C1r-C1s tetramer (Homo sapiens) (UniProt P00736); assay: SPR; settings: cited from earlier work
Polar Assortant (PA) = assay: SPR

Row | Substance | Kd [1] [nM] | Kd (Polar Assortant (PA)) [nM] | koff (Polar Assortant (PA)) [s⁻¹] | kon (Polar Assortant (PA)) [M⁻¹ s⁻¹]
1 | C1q (from UniProt P02745) | 2.72 | – | – | –
2 | human C1q (from UniProt P02745 23-245; P02746 28-253; P02747 29-245) (complex) | – | 33.3 | 0.000808 | 25800
